Earlier results, collected in patent US7381745B2, “Ligands for metabotropic glutamate receptors and inhibitors of NAALADase” (Georgetown University, priority 1999, dated 2008).

Chains of the proteins cited; added tags and fusions are not shown.
UniProt P70627, whole entry: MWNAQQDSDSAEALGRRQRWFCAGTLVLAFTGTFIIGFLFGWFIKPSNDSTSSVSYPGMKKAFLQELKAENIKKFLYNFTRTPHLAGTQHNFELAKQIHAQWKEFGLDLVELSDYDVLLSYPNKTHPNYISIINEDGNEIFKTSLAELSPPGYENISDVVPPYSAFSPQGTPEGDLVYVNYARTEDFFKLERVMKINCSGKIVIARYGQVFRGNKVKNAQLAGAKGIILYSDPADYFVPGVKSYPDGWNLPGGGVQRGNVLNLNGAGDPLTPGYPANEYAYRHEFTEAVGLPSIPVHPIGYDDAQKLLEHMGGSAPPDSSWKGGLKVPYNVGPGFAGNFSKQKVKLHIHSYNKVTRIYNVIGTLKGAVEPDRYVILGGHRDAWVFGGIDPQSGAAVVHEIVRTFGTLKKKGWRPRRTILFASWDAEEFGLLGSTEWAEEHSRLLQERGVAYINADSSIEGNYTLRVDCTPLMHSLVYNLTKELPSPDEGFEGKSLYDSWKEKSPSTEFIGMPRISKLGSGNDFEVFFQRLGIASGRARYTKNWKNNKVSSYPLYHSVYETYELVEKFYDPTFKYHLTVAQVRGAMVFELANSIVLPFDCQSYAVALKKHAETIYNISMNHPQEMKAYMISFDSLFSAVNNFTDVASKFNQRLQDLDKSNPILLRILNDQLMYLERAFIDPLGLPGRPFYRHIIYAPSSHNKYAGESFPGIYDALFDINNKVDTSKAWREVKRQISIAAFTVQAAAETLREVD

Target: NAALADase (Rattus norvegicus, UniProt P70627)
Settings: reported, J. Med. Chem. 39, 619; cited from earlier work

Substance: 2-(phosphomethyl)pentanedioic acid [PMPA]
- NAALADase inhibition (in words): potent inhibitors of NAALADase
